Literature values as cited in patent US20070244041A1, “Peptide Yy Analogues” (Reoscience A/S, priority 2004, published 2007).

How the values were obtained:
[1] = not given; remark: listed apart in the source
Y2 receptors = conditions: 30, 300 and 3000 μg/kg bw

In the case of “PYY3-36: endogenous peptide YY (3-36), sequence SEQ ID NO: 2, Y2-selective”, the “4 hour food intake” value (acute i.p. injections, 30, 300 and 3000 μg/kg bw) is listed as “inhibits 4 hour food intake”, the weight gain (chronic treatment, twice daily injections of 50 μg/kg bw, rats) is listed as “suppresses weight gain” and the appetite ([1]; 90 min intravenous infusion, healthy human volunteers) is listed as “reduction in appetite”. The caloric intake ([1]; 90 min intravenous infusion, healthy human volunteers, following 12 hours) was “reduced caloric intake”, the “food inhibitory effect in obese individuals” value ([1]; peripherally administered, obese individuals) was “present also in obese individuals” and the “caloric intake in mice lacking the Y2 receptor” value (Y2 receptors) was “fail to reduce caloric intake”. For the same substance, the “selectivity for Y2 over Y1 receptors” value (Y2 over Y1 receptors) was “high selectivity”.
